# Properties, as collected for the OPERA models

Melting points are in °C.
The boiling point refers to atmospheric pressure (760 mmHg), by the definition of the set.
logP is the log10 of the octanol-water partition coefficient; higher is more lipophilic.
Solubility in water is on a log10 molar scale (set defined at 25 °C).
Vapor pressures (log10 mmHg) refer to near room temperature, 15 to 30 °C; higher is more volatile.
The Henry's law constant is on a log10 scale in atm·m3/mol (set defined at 25 °C); higher favours air over water.
fu is the fraction unbound in human plasma, from 0 to 1.
Clint is human hepatic intrinsic clearance in µL/min per million cells; 0 means that no clearance was seen.

- Fc1cccc(C(F)(F)F)n1 [2-Fluoro-6-(trifluoromethyl)pyridine]: MP -15.2 °C; log Kow 1.83; log solubility -1.95 (log10 mol/L); vapor pressure 0.623 (log10 mmHg)
- CC1=CCC2C(C1)C2(C)C (centres undefined) [3-Carene]: log solubility -4.67 (log10 mol/L); vapor pressure 0.368 (log10 mmHg)
- COC1CC2CC1C1C=CCC21 (centres undefined) [4,7-Methano-1H-indene, 3a,4,5,6,7,7a-hexahydro-5-methoxy-]: MP -80.1 °C; log Kow 3.85; log solubility -3.085 (log10 mol/L); vapor pressure -0.313 (log10 mmHg)
- CCc1ccc(C2OC3COC(c4ccc(CC)cc4)OC3C(C(O)CO)O2)cc1 (centres undefined) [1,3:2,4-Bis-O-[(4-ethylphenyl)methylene]hexitol]: MP 214.5 °C; boiling point 337.1 °C; log Kow 1.6; log solubility -6.976 (log10 mol/L)
- CCC(=O)OCCC(C)C [3-Methylbutyl propanoate]: log Kow 3.133; log solubility -2.87 (log10 mol/L)
- CCn1c(O)c(N=Nc2ccc(Cl)cc2[N+](=O)[O-])c(C)c(C#N)c1=O: MP 225 °C; log solubility -6.69 (log10 mol/L); vapor pressure -10.08 (log10 mmHg)
- CC(=O)O[C@@]12CO[C@@H]1C[C@H](O)[C@@]1(C)C(=O)[C@H](O)C3=C(C)[C@@H](OC(=O)[C@H](O)[C@@H](NC(=O)OC(C)(C)C)c4ccccc4)C[C@@](O)([C@@H](OC(=O)c4ccccc4)[C@H]21)C3(C)C [Docetaxel]: log Kow 2.4; fraction unbound 0.03833
- CC(C)CCC(C)Nc1ccc(Nc2ccccc2)cc1 (centres undefined) [N-(5-Methyl-2-hexyl)-N'-phenyl-p-phenylenediamine]: MP 29.8 °C; log Kow 2.82; log solubility -5.625 (log10 mol/L)
- NCCCCCCCCCCCC(=O)O [12-Aminododecanoic acid]: log Kow -0.18; log solubility -3.196 (log10 mol/L); vapor pressure -13.47 (log10 mmHg)
- CO[C@H]1C[C@H](O[C@H]2[C@H](C)O[C@@H](O[C@@H]3C(C)=CC[C@@H]4C[C@@H](C[C@]5(C=C[C@H](C)[C@@H](C6CCCCC6)O5)O4)OC(=O)[C@@H]4C=C(C)[C@@H](O)[C@H]5OCC(=CC=C[C@@H]3C)[C@]54O)C[C@@H]2OC)O[C@@H](C)[C@@H]1O [Doramectin]: log Kow 4.41; log solubility -7.561 (log10 mol/L); vapor pressure -6.28 (log10 mmHg)
- FC(F)(F)OC1(Cl)OC(F)(F)OC1(F)Cl (centres undefined): boiling point 76 °C; log Kow 4.4; vapor pressure 2.164 (log10 mmHg)
- CCN(CC)c1ccc(N=Nc2c(Br)cc([N+](=O)[O-])cc2[N+](=O)[O-])c(NC(C)=O)c1: MP 180 °C; log solubility -7.38 (log10 mol/L)
- CC(C)c1ccc(C#N)cc1 [4-Isopropylbenzonitrile]: MP -60.5 °C; log solubility -2.989 (log10 mol/L); vapor pressure -1.046 (log10 mmHg)
- c1ccc(-c2nnc(-c3ccc(-c4nnc(-c5ccccc5)c(-c5ccccc5)n4)cc3)nc2-c2ccccc2)cc1: MP 321 °C; log Kow 10.5
- C=C(C)C(=O)OCCCOc1ccc(C(C)(C)c2ccc(OCCCOC(=O)C(=C)C)cc2)cc1: MP -41 °C; log solubility -7.456 (log10 mol/L); vapor pressure -8.106 (log10 mmHg)
- C=C(CC(C)(C)c1ccccc1)c1ccccc1 [2,4-Diphenyl-4-methyl-1-pentene]: boiling point 312.1 °C; log solubility -6.012 (log10 mol/L); vapor pressure -3.323 (log10 mmHg)
- C=CCOCC(CC)(CO)COCC=C [2,2-Bis[(prop-2-en-1-yloxy)methyl]butan-1-ol]: boiling point 260.9 °C; log solubility -1.718 (log10 mol/L)
- CCCCCCCCCCCCCCCCCCCCCC(=O)O[C@H]1[C@@H]([C@@H](CO)OC(=O)CCCCCCCCCCCCCCCCCCCCC)OC[C@@H]1OC(=O)CCCCCCCCCCCCCCCCCCCCC [Sorbitan, tridocosanoate]: MP 70.35 °C; log solubility -6.334 (log10 mol/L)
- CCCCC1CCC(C2CCC(c3ccc(OCC)c(F)c3F)CC2)CC1 (centres undefined): MP 114.4 °C; vapor pressure -6.907 (log10 mmHg)
- CCCCCCCCCCCCCCCC(=O)O[C@@H]1C[C@@H](C(=O)O)N(C(=O)CCCCCCCCCCCCCCC)C1: MP 69 °C; vapor pressure -7.472 (log10 mmHg)
- N#CCC(=O)c1ccccc1Cl [2-Chlorobenzoylacetonitrile]: log Kow 0.8; log solubility -2.175 (log10 mol/L)
- CCCCCC(C)(CC)C(=O)[O-].CCCCCC(C)(CC)C(=O)[O-].[Fe+2] (centres undefined) [Iron(2+) bis(2-ethyl-2-methylheptanoate)]: log solubility -7.396 (log10 mol/L); vapor pressure -4.945 (log10 mmHg)
- C=Cc1ccc(OC(C)=O)cc1 [4-Ethenylphenyl acetate]: log Kow 2.4; log solubility -2.354 (log10 mol/L)
- C=C(C)C(=O)NCOC [2-Propenamide, N-(methoxymethyl)-2-methyl-]: log Kow -0.18; vapor pressure -1.624 (log10 mmHg)
- CC(=O)CC(=O)Nc1ccc(C)cc1C [N-(2,4-Dimethylphenyl)-3-oxobutanamide]: log Kow 1.45; vapor pressure -6.357 (log10 mmHg)
- COc1cc(OC)c(NC(=O)c2cc3ccccc3cc2O)cc1Cl: log Kow 2.97; log solubility -5.378 (log10 mol/L)
- Cc1ccc(C(=O)c2cc(O)c(O)c([N+](=O)[O-])c2)cc1 [Tolcapone]: log Kow 4; log solubility -3.681 (log10 mol/L); hepatic Clint 22 µL/min/10^6 cells
- CC(=O)c1ccc(S(=O)(=O)NC(=O)NC2CCCCC2)cc1 [Acetohexamide]: log solubility -2.06 (log10 mol/L); fraction unbound 0.04
- CCN(CC)CCOCc1ccc(C)cc1.Cl [N,N-Diethyl-2-(4-methylbenzyloxy) ethylamine hydrochloride]: log Kow 0; vapor pressure -7.049 (log10 mmHg)
- CC(CCc1ccc(O)cc1)NCCc1ccc(O)c(O)c1 (racemic): log Kow 3.6; log solubility -4.342 (log10 mol/L)
- CC(C)COC(=O)c1ccccc1O [Isobutyl salicylate]: log Kow 4.09; log solubility -3.998 (log10 mol/L); vapor pressure -1.353 (log10 mmHg)
- NC1=C(Cl)C(=O)c2ccccc2C1=O [2-Amino-3-chloro-1,4-naphthoquinone]: log solubility -4 (log10 mol/L); Henry's law constant -7.521 (log10 atm·m3/mol)
- Cc1ccc2c(c1)CC[C@H]([C@H]1CO1)O2: MP -47.3 °C; log Kow 2.35; log solubility -2.479 (log10 mol/L); vapor pressure -2.914 (log10 mmHg)
- O=C1NCC2(CCN(CCc3ccccc3)CC2)O1 [Fenspiride]: MP 155.4 °C; log solubility -2.394 (log10 mol/L)
- CC(=O)OC(C)CC(C)(C)c1ccccc1 (centres undefined) [1,3-Dimethyl-3-phenylbutyl acetate]: MP -82 °C; log Kow 3.55; log solubility -3.416 (log10 mol/L); vapor pressure -1.475 (log10 mmHg)
- COC(=O)C(F)(F)C(F)(F)C(F)(F)OC(F)=C(F)F [Methyl 4-trifluoroethenoxy-2,2,3,3,4,4-hexafluorobutanoate]: boiling point 134 °C; vapor pressure 0.947 (log10 mmHg)

The first 2 entries again:

* Fc1cccc(C(F)(F)F)n1 [2-Fluoro-6-(trifluoromethyl)pyridine]: MP -15.2 °C; log Kow 1.83; log solubility -1.95 (log10 mol/L); vapor pressure 0.623 (log10 mmHg)
* CC1=CCC2C(C1)C2(C)C (centres undefined) [3-Carene]: log solubility -4.67 (log10 mol/L); vapor pressure 0.368 (log10 mmHg)

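The numbers are reported measurements, compiled and curated for the OPERA QSAR suite. A listed value is a point estimate from one report or more. How each value was measured is not recorded, so precision varies. The measured form (salt, isomer or mixture) is not always the one drawn. Some upstream entries may be estimates or bounds without being marked so.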

Values as listed in the OPERA 2.9 repository of K. Mansouri.